The assay addresses T1, Human IL-17A (human, UniProt Q16552 24-155).
T1 construct: Used in solution at a fixed concentration (75 nM with tracer BCY13196); also called Interleukin-17; CTLA-8
T1 sequence (looked up): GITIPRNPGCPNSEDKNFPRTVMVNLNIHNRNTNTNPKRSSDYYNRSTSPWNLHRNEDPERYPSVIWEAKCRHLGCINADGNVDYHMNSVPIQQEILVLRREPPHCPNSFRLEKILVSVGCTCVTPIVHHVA
Briefly: fluorescence polarization competition, 75 nM human IL-17A, 1 nM tracer BCY13196, mean of n=3. The method, then:
Affinity determination by fluorescence polarization (FP) competition. Bicycles were screened to determine affinity (Ki) in a fluorescence polarisation assay where in competition with a bicycle labelled with fluorescein (referred to as tracer) with a known affinity for IL-17A. Peptides were diluted to an appropriate concentration in assay buffer (PBS+0.01% Tween20, adjusted to pH7.4 using NaOH (1M)) with a maximum of 1% DMSO, then serially diluted 1 in 2 into assay buffer. Into black 384-well low volume plates, 5 μL of diluted peptide was added to the plate followed by 10 μL of IL-17A at a fixed concentration (75 nM IL-17A for tracer BCY13196, 50 nM IL-17A for tracer BCY13351), then 10 μL tracer added to a final concentration of 1 nM. Measurements were conducted on a BMG PHERAstar FS equipped with an “FP 485 520 520” optic module which excites at 485 nm and detects parallel and perpendicular emission at 520 nm. The PHERAstar FS was set at 25° C. with 200 flashes per well and a positioning delay of 0.1 second, with each well measured at 5 to 10 minute intervals for 60 minutes. The gain used for measurements was determined at the point of experiment on a tracer alone well. […]
Selected peptide ligands of the invention were tested in the above mentioned IL-17A human fluorescence polarization (FP) competition assay and the results are shown in Table 1: […]
(Polarisation of emitted light reports the rotation of a fluorescent probe.)

B1: BCY13057 (peptide)
peptide: ACPQDLELCTFLFGDCA
modifications: the three cysteine residues (Ci, Cii, Ciii) are covalently bound to the TATA scaffold (1,1',1''-(1,3,5-triazinane-1,3,5-triyl)triprop-2-en-1-one), forming two loops
notes: Synthetic bicyclic peptide cyclised on TATA; also called bicyclic peptide ligand specific for IL-17A
The term Ki denotes the equilibrium dissociation constant of an inhibitor or competing ligand from its target. B1: the Ki came out at 262 nM.

For the origin of these results see patent publication US20230039677A1, “BICYCLIC PEPTIDE LIGANDS SPECIFIC FOR IL-17” (BicycleTx Limited, priority 2019, published 2023).
